Publication PMC5507339, “Small-molecule inhibition of pyruvate phosphate dikinase targeting the nucleotide binding site” (PLoS ONE, 2017)

Target: T1, PPDK from Flaveria trinervia (Flaveria trinervia, UniProt P22221)
T1 construct: His10 (N); TEV cleavage site (N); made in house; host or cells: E. coli BL21 (DE3)
T1 sequence (P22221 80-953): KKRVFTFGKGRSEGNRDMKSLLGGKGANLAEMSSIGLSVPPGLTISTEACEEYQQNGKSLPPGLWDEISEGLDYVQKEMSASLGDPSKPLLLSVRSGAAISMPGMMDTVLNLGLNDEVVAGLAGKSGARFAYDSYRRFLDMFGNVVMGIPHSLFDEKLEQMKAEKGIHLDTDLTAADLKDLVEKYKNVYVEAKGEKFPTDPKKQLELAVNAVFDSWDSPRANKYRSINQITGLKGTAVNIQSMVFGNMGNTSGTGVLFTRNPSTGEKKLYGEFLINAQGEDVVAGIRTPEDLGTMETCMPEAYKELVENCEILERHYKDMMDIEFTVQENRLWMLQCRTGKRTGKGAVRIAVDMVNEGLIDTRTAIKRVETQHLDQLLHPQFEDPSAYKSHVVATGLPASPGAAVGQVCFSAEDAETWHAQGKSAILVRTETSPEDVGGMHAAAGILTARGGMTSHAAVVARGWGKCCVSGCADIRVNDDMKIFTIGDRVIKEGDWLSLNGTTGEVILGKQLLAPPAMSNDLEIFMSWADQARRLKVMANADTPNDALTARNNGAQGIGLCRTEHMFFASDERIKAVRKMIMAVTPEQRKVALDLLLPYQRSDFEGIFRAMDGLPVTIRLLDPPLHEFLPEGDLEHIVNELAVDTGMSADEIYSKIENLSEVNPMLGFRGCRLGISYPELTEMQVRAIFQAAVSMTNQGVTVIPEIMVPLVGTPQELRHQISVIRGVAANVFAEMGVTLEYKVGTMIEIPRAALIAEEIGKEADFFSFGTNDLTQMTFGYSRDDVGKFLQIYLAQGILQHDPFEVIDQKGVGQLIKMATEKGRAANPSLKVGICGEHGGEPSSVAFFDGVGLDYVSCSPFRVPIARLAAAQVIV
Assay type: biochemical

Residual PPDK activity relative to DMSO-treated controls: about 15%
SMILES: O=C1Nc2cc(Br)ccc2/C1=C1\N=c2ccccc2=C1NO [BIO, 6-bromoindirubin-3’-monoxime]
